# This is a selection; strong and weak results do not stand in their true shares. Some of the results follow. The source made the active and inactive calls.
# Protein sequences, listed by entry. Tags and fused reporters are not part of them. Lines headed by an entry give the natural chain unless they say otherwise; changes in a name come on top.
# UniProt P98170, whole entry, looked up: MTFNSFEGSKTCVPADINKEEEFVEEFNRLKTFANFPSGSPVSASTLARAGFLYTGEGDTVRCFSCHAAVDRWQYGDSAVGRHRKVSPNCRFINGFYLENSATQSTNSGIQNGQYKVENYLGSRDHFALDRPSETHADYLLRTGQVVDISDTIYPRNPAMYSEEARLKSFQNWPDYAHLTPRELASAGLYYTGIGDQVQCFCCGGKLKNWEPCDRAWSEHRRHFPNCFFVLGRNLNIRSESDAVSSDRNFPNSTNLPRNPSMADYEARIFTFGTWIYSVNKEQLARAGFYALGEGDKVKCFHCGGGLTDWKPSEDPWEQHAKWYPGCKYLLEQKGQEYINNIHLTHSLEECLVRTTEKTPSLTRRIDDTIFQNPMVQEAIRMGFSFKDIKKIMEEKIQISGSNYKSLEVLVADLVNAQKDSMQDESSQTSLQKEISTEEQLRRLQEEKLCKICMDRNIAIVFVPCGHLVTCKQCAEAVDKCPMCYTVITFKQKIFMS
# UniProt Q62424: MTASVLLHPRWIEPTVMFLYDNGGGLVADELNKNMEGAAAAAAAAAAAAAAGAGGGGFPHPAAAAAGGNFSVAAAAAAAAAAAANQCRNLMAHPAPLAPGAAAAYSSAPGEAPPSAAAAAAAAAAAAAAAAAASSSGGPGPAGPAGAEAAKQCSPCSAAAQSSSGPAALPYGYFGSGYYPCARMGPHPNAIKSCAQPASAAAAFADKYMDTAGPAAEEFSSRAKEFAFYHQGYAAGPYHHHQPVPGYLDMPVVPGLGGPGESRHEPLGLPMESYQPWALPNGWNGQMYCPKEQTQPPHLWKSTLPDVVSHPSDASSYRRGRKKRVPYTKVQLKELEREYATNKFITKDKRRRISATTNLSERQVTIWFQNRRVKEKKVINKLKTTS
# Columns and labels:
# [1] = MM1S cell viability effects, profiling panel, calcein-AM fluorescence, 48 h, basal (AID 1165); conditions: higher = more signal;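 note: viability of MM1S multiple myeloma cells under basal unstimulated conditions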
# [2] = basal RPMI8226 viability, no added stimulus, profiling panel, cell-based, calcein-AM fluorescence, 48 h, PK04 Diversity Set (AID 1166); conditions: RPMI8226 myeloma viability, higher = more signal;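 note: cells grown under basal conditions without added stimulus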
# [3] = basal HepG2 mitochondrial membrane potential changes, profiling panel, cell-based, JC-1 fluorescence, 24 h, 100 nL compound (AID 1167); conditions: higher = more signal
# [4] = basal 3T3-L1 adipocyte mitochondrial potential changes, profiling panel, cell-based, JC-1 fluorescence, 3T3-L1 adipocytes, 24 h, 100 nL compound (AID 1168); conditions: JC-1 mitochondrial fluorescence, higher = more signal, called active from +8 up or from −8 down
# [5] = basal RPMI8226 mitochondrial membrane potential changes, profiling panel, cell-based, JC-1 fluorescence, 24 h, 100 nL compound (AID 1169); conditions: RPMI8226 myeloma, JC-1 mitochondrial potential fluorescence, higher = more signal
# [6] = basal MM1S mitochondrial membrane potential changes, profiling panel, cell-based, JC-1 fluorescence, 24 h, 100 nL compound (AID 1170); conditions: higher = more signal
# [7] = A549 lung cancer cell viability effects, profiling panel, resazurin fluorescence, 24 h, PK04 Diversity Set (AID 1171); conditions: higher = more signal, called active from +8 up or from −8 down
# [8] = HepG2 liver cancer cell viability effects, profiling panel, resazurin fluorescence, 24 h, PK04 Diversity Set (AID 1172); conditions: higher = more signal
# [9] = basal S. cerevisiae growth modulation, no modifier, primary screen, OD600, strain BY4716, 24 h, basal condition (AID 1173); conditions: OD600, 24 h, higher = more signal, called active from +8 up or from −8 down
# [10] = MM1S myeloma cell viability, profiling panel, resazurin fluorescence, basal, 24 h, PK04 Diversity Set (AID 1174); conditions: higher = more signal, called active from +8 up or from −8 down;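 note: MM1S multiple myeloma cell line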
# [11] = S. cerevisiae RM11-1a growth modifiers, primary screen, strain RM11-1a, OD600, basal, 24 h (AID 1177); conditions: OD600, 24 h, higher = more signal, called active from +8 up or from −8 down;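 note: cultures grown under basal conditions with no added stressor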
# [12] = RPMI8226 myeloma cell viability, profiling panel, resazurin fluorescence, basal, 24 h, PK04 Diversity Set (AID 1180); conditions: higher = more signal;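 note: RPMI8826 multiple myeloma cell line at 5000 cells per well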
# [13] = target: E3 ubiquitin-protein ligase XIAP (Homo sapiens) (UniProt P98170); test: XIAP binders, primary screen, biophysical, small-molecule microarray, fluorescence 635 nm (AID 1181); conditions: small-molecule microarray binding, higher = more signal;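 note: score merges 667 nm emission and signal to noise over triplicate slides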
# [14] = test system: XIP peptide (Xip251-270) binding; test: small-molecule binders of XIP peptide, primary screen, biochemical, small-molecule microarray, fluorescence 635/667 nm, 0.1 µg/mL protein (AID 1182); conditions: fluorescent protein binding, 635 nm, higher = more signal, called active from +8 up or from −8 down
# XIP peptide (Xip251-270) = test: small-molecule binders of XIP peptide, primary screen, biochemical, small-molecule microarray, fluorescence 635/667 nm, 0.5 µg/mL protein (AID 1183); conditions: small-molecule microarray binding, fluorescence 635 nm; higher = more signal
# [15] = target: Homeobox protein Hox-A13 (Mus musculus) (UniProt Q62424); test: inhibitors of HoxA13-DNA binding, primary screen, biochemical, fluorescence polarization, labeled oligonucleotide (AID 1185); conditions: 15 min, higher = more signal, called active from +8 up or from −8 down
SMILES,z-score [1],z-score [2],z-score [3],z-score [4],z-score [5],z-score [6],z-score [7],z-score [8],z-score [9],z-score [10],z-score [11],z-score [12],composite z-score [13],composite z-score [14],composite z-score (XIP peptide (Xip251-270)),z-score [15]
COP(=O)(/N=C1/CC(CCCO)=CC(c2ccc(CN3CCCC3)cc2)N1Cc1cc2c(cc1Br)OCO2)OC (stereo not given),0.103,0.945,1.8,inactive: 1.73,-0.483,0.861,inactive: -0.216,0.531,inactive: -2.74,inactive: 0.871,inactive: -2.8,0.478,0.0847,inactive: -0.0668,0.78,inactive: -1.63
COP(=O)(/N=C1/CC(c2ccc(CO)cc2)=CC(C2CC2)N1C)OC (stereo not given),-0.331,2.13,0.845,inactive: -0.794,-0.595,-1.25,inactive: 0.393,0.346,inactive: -2.75,inactive: 0.486,inactive: -2.11,0.746,0.167,inactive: -0.0137,0.687,inactive: -2.51
COP(=O)(/N=C1/CC(c2ccc(CO)cc2)=CC(C2CC2)N1Cc1cc2c(cc1Br)OCO2)OC (stereo not given),-0.953,-2.02,3.17,inactive: 0.42,-0.393,0.0277,inactive: -0.126,0.0523,inactive: -5.74,inactive: -0.248,inactive: -2.05,-0.508,0.269,inactive: 0.635,0.52,inactive: -2.57
COP(=O)(/N=C1/CC(CCCO)=CC(C2CC2)N1Cc1cccc(OC(F)(F)F)c1)OC (stereo not given),-0.489,-0.423,2.1,inactive: 1.04,-0.248,-1.3,inactive: -0.144,-0.494,inactive: -4.23,inactive: 0.36,inactive: -1.79,0.601,0.358,inactive: 0.494,0.161,inactive: -5.34
COP(=O)(/N=C1/CC(CCCO)=CC(c2cccs2)N1C)OC (stereo not given),0.445,0.654,1.64,inactive: 1.96,0.754,0.0384,inactive: 0.589,0.878,inactive: -3.1,inactive: 0.875,inactive: -0.871,1.4,0.451,inactive: 0.995,-0.0426,inactive: -5.98
CN1/C(=N\P(=O)(Oc2ccccc2)Oc2ccccc2)CC(CCCO)=CC1C1CC1 (stereo not given),0.544,1.02,1.38,inactive: -0.0671,-0.893,0.0912,inactive: -1.64,-1.08,inactive: -0.229,inactive: -1.02,inactive: -0.809,-0.491,-0.165,inactive: -0.126,0.216,inactive: -5.81
CN1/C(=N\P(=O)(Oc2ccccc2)Oc2ccccc2)CC(CCCO)=CC1c1cccs1 (stereo not given),0.561,-0.936,-0.0233,inactive: -0.488,0.0209,0.678,inactive: -1.39,-1.42,inactive: -1.06,inactive: -0.981,inactive: -0.0522,-0.913,0.0361,inactive: 0.259,0.882,inactive: -6.5
COP(=O)(/N=C1/CC(CCCO)=CC(C2CC2)N1Cc1cc2c(cc1Br)OCO2)OC (stereo not given),-0.955,0.508,2.21,inactive: 0.734,0.0331,-1.34,inactive: -0.146,-0.0943,inactive: -2.71,inactive: 0.248,inactive: -2.06,-0.0339,0.403,inactive: 0.783,-0.0026,inactive: -5.53
O=P(/N=C1/CC(c2ccc(CO)cc2)=CC(C2CC2)N1Cc1cc2c(cc1Br)OCO2)(Oc1ccccc1)Oc1ccccc1 (stereo not given),-2.24,-4.51,-0.225,inactive: 0.816,-0.975,-2.42,inactive: -0.798,0.503,inactive: -1.33,inactive: -1.41,inactive: 0.425,-1.76,0.0192,inactive: 0.712,0.814,inactive: -1.75
CN1/C(=N\P(=O)(Oc2ccccc2)Oc2ccccc2)CC(CCCO)=CC1c1ccc(CN2CCCC2)cc1 (stereo not given),-0.0995,0.0706,-0.164,inactive: -0.32,-0.561,0.105,inactive: 0.661,0.134,inactive: 1.21,inactive: -0.332,inactive: 1.25,-0.0095,0.0772,inactive: 0.281,0.281,inactive: -4.13
COP(=O)(/N=C1/CC(CCCO)=CC(c2ccc(CN3CCCC3)cc2)N1C)OC (stereo not given),0.809,0.665,1.4,inactive: 1.2,0.518,0.478,inactive: -0.457,0.0496,inactive: -1.81,inactive: -0.0396,inactive: -2.09,-0.174,0.474,inactive: -0.0801,-0.503,inactive: -1.64
O=P(/N=C1/CC(CCCO)=CC(c2cccs2)N1Cc1cc2c(cc1Br)OCO2)(Oc1ccccc1)Oc1ccccc1 (stereo not given),-0.735,0.276,-0.738,inactive: -0.0642,-0.825,1.46,inactive: -0.465,-0.598,inactive: -2.69,inactive: -0.0096,inactive: 0.381,-0.0843,0.218,inactive: 1.69,0.615,inactive: -1.25
COP(=O)(/N=C1/CC(c2ccc(CO)cc2)=CC(C2CC2)N1Cc1sc2ccccc2c1Cl)OC (stereo not given),-3.22,-3.72,3.07,inactive: 2.81,-0.659,-1.16,inactive: -1.03,1.5,active: -8.03,inactive: -2.06,inactive: -4.46,-2.15,0.0847,inactive: 1.98,-0.0195,inactive: -1.18
COP(=O)(/N=C1/CC(CCCO)=CC(C)N1Cc1cccc(OC(F)(F)F)c1)OC (stereo not given),0.969,0.688,1.55,inactive: 0.821,-0.634,0.029,inactive: -0.64,0.113,inactive: -2.69,inactive: 0.768,inactive: -2.02,0.299,0.122,inactive: 1.45,-0.288,inactive: -4.67
COP(=O)(/N=C1/CC(CCCO)=CC(c2ccc(CN3CCCC3)cc2)N1Cc1cccc(OC(F)(F)F)c1)OC (stereo not given),-3.32,-0.145,2.86,inactive: -0.059,-0.703,-2.06,inactive: 0.634,-0.495,inactive: -2.92,inactive: 0.0702,inactive: -1.64,0.212,0.199,inactive: 1.65,0.0666,inactive: -5.3

# Source: PubChem BioAssay
